Data reported in ChEMBL document CHEMBL4373703 (J Med Chem, 2019).

Sequences of proteins named here, by UniProt entry; tags and fusion partners are left off. A change or cut given only in a name is not applied to a line headed by its entry.
UniProt Q06187: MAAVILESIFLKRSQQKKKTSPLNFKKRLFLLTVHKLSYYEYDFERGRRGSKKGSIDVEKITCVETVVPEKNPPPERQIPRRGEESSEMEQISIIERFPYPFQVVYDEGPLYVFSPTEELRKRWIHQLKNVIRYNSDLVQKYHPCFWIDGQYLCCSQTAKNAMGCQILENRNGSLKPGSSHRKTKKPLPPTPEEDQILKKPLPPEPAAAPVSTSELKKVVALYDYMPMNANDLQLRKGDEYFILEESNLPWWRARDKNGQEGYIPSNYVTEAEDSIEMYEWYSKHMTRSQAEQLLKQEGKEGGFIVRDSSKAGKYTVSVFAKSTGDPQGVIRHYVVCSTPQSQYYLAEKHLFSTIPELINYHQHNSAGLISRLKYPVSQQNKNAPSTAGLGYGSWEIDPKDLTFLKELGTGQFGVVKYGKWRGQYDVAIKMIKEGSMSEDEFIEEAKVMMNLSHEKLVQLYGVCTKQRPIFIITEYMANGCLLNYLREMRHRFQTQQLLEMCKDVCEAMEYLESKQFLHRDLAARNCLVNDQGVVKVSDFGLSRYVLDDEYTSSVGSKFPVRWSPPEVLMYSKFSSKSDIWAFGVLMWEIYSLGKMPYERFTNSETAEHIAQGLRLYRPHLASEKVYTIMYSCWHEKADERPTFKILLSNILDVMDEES

What was measured:
[1] = target: T1, Tyrosine-protein kinase BTK (Homo sapiens, UniProt Q06187); assay: Covalent inhibition of N-terminal GST-fused human BTK (2-659(end) amino acids) expressed in baculovirus expression system using FITC-AHA-EEPLYWSFPAKKK-NH2 as substrate incubated for 90 mins by microfluidic off-Chip Mobility Shift Assay
[2] = target: T1, Tyrosine-protein kinase BTK; assay: Inhibition of BTK in human PBMC cells assessed as reduction in anti-IgM-stimulated CD69 expression on B cells preincubated for 60 mins followed by goat F(ab')2 anti-human IgM stimulation and measured after overnight incubation by flow cytometry; assay type: cell-based

| SMILES | IC50 [1] | IC50 [2] |
| --- | --- | --- |
| C=CS(=O)(=O)N1CCC(CNc2ncnc(N)c2-c2ccc(Oc3ccccc3)cc2)CC1 | 0.8 nM | 45 nM |
| C=CC(=O)N[C@H]1CC[C@@H](Nc2ncnc(N)c2-c2ccc(Oc3ccccc3)cc2)CC1 | 33 nM | 660 nM |
| C=CC(=O)N1CC2(CC(Nc3ncnc(N)c3-c3ccc(Oc4ccccc4)cc3)C2)C1 | 2.1 nM | 66 nM |
| Nc1ncnc(NCC2CCN(C(=O)CCl)CC2)c1-c1ccc(Oc2ccccc2)cc1 | 0.6 nM | 160 nM |
| C=CC(=O)N[C@@H]1CCC[C@H](Nc2ncnc(N)c2-c2ccc(Oc3ccccc3)cc2)C1 (relative stereo) | 14 nM | – |
| C=CC(=O)N[C@@H]1CC[C@H](Nc2ncnc(N)c2-c2ccc(Oc3ccccc3)cc2)C1 (relative stereo) | 21 nM | – |
| C=CC(=O)N1CCCC(Nc2ncnc(N)c2-c2ccc(Oc3ccccc3)cc2)C1 (single isomer, unassigned) | 6.5 nM | 143 nM |

Further molecules by falling IC50 [1], results first:

| IC50 [1] | IC50 [2] | SMILES |
| --- | --- | --- |
| 23 nM | – | C=CC(=O)Nc1cccc(Oc2ncncc2-c2ccc(Oc3ccccc3)cc2)c1 |
| 9 nM | – | C=CC(=O)N1CCC(CNc2ncnc(N)c2-c2ccc(Oc3cccc(F)c3)cc2)CC1 |
| 5.9 nM | 26 nM | C=CC(=O)N1CCC(O)(CNc2ncnc(N)c2-c2ccc(Oc3ccccc3)cc2)CC1 |
| 5.5 nM | 217 nM | C=CC(=O)N1CCC(Nc2ncnc(N)c2-c2ccc(Oc3ccccc3)cc2)C1 (single isomer, unassigned) |
